Assay results as given in patent US9180118B2, “Thiadiazolidinone derivatives” (University of Rochester, priority 2006, dated 2015).
Where “and” joins values, the source holds several entries; their conditions need not be identical. Identical values can stand only once.

Test system: phospho-FLT3 in CD34+CD38− AML cells
Experiment: Phospho-FLT3 flow cytometry, CD34+CD38− population of primary AML
Format: cell-based, human
Conditions: 30 minutes after addition of drug

Cn1sc(=O)n(Cc2ccccc2)c1=O [TDZD-8, 4-benzyl-2-methyl-1,2,4-thiadiazolidine-3,5-dione]
inhibition of FLT3 phosphorylation: ~30% and 29.5%
